Laboratory results published in patent publication US20090274714A1, “TUMOUR-ASSOCIATED PEPTIDES BINDING TO HUMAN LEUKOCYTE ANTIGEN (HLA) CLASS I OR II MOLECULES AND RELATED ANTI-CANCER VACCINE” (Immatics Boitechnologies GmhH, priority 2005, published 2009).

Key:
T-cells = details: reference: published literature; cited from earlier work
[1] = Physico-chemical characteristics: solubility; details: solvent giving clear and colourless solution at 1 mg/ml
renal cell carcinoma = details: advanced RCC; cited from earlier work

| Molecule | In vitro immunogenicity (assay by which shown) (T-cells) | Solubility (Clear and colourless solution 1 mg/ml) [1] | patients achieving durable complete remissions (renal cell carcinoma) |
| --- | --- | --- | --- |
| CC(C)C[C@H](NC(=O)[C@@H](N)Cc1ccccc1)C(=O)N1CCC[C@H]1C(=O)N[C@@H](CO)C(=O)N[C@@H](CC(=O)O)C(=O)N[C@@H](Cc1ccccc1)C(=O)N[C@@H](Cc1ccccc1)C(=O)N1CCC[C@H]1C(=O)N[C@@H](CO)C(=O)N[C@H](C(=O)O)C(C)C [IMA-HBV-001, reference compound] | Killer assay | 10% acetic acid | – |
| IL-2: Interleukin-2, immunological treatment of advanced RCC | – | – | approximately 5% |
